# Data: PubChem BioAssay (EPA / NIEHS)
# Sequences of proteins named here, by UniProt entry; tags and fusion partners are left off.
# UniProt Q16665, whole entry: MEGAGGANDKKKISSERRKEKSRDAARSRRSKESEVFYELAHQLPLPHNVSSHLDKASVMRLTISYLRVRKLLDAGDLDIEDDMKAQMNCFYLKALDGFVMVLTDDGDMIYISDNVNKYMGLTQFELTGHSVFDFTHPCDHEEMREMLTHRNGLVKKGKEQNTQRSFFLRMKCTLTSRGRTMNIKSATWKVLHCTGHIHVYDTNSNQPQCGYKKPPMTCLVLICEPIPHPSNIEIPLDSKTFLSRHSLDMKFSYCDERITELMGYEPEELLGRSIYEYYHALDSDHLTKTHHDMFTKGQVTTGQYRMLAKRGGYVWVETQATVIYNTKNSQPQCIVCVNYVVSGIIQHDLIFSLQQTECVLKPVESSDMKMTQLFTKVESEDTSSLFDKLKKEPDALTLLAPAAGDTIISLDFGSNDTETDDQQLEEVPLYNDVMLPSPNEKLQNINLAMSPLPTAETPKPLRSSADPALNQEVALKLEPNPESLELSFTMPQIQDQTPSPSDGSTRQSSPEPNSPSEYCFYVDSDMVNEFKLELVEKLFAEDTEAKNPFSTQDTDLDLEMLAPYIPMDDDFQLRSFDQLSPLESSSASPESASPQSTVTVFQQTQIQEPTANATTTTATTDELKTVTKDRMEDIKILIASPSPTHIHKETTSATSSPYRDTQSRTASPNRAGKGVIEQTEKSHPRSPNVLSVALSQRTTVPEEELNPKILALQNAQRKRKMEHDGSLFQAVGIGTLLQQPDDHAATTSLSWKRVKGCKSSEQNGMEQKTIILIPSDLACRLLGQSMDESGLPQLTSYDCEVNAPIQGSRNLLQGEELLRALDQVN
# UniProt Q9UBC0, whole entry: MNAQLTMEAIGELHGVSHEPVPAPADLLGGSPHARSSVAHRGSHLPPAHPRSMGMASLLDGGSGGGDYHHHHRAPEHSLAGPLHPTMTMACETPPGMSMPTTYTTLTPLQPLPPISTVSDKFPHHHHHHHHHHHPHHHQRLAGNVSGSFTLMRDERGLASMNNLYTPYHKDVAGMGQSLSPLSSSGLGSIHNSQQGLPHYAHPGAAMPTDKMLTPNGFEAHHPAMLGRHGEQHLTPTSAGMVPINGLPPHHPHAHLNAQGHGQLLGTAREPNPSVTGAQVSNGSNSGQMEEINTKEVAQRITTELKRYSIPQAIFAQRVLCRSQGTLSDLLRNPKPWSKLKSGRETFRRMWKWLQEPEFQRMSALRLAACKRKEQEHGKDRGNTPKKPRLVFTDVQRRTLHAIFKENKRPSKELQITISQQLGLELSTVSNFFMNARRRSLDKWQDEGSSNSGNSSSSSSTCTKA
# UniProt Q00613, whole entry: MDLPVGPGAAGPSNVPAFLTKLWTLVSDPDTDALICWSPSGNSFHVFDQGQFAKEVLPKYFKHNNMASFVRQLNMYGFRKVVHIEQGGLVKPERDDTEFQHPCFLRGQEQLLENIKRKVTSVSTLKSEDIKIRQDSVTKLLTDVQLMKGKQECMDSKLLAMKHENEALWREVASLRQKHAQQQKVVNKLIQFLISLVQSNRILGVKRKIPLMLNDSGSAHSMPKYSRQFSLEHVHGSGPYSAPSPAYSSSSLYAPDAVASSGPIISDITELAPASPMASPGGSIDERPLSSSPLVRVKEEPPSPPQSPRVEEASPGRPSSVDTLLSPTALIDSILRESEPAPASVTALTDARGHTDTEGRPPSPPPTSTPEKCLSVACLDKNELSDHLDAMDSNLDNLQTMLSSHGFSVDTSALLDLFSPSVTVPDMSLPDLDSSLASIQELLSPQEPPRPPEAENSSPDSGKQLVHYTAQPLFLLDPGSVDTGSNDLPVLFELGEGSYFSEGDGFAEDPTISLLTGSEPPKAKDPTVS
# UniProt P08047, whole entry: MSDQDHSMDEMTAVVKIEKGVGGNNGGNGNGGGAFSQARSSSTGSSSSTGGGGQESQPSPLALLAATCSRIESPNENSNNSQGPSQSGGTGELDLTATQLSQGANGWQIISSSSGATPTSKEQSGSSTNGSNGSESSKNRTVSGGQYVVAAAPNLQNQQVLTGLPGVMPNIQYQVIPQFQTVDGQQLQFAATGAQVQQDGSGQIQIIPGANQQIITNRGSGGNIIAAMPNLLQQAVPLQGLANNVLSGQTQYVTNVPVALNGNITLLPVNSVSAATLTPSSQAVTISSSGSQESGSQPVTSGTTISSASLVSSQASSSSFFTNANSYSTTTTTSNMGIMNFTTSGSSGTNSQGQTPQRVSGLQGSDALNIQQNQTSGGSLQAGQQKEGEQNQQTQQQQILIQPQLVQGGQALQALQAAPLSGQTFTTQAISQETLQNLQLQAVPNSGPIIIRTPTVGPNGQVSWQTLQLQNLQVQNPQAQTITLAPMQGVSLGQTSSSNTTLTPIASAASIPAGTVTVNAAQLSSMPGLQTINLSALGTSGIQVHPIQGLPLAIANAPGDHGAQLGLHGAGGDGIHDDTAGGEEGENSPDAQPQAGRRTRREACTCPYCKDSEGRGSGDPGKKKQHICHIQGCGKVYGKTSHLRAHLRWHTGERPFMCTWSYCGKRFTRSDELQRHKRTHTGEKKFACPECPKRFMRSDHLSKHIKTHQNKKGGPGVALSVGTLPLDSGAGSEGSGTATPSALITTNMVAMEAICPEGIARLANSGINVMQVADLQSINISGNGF
# UniProt Q96RI1, whole entry: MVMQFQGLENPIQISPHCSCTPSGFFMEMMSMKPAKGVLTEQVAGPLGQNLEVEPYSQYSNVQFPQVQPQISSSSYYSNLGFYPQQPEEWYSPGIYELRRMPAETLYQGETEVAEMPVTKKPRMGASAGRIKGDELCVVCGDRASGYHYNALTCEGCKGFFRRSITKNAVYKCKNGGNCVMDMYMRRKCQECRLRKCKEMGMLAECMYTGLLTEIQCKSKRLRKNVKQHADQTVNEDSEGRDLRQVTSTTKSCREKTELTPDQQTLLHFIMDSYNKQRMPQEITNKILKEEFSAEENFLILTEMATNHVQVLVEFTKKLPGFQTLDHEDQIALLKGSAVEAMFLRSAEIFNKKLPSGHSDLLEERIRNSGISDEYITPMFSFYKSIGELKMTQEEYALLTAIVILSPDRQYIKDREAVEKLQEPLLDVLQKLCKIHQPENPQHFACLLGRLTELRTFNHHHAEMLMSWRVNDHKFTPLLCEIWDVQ
# The entries are a selection whose mix differs from that of the whole data set. The source made the active and inactive calls. The calls were made as follows: active = hit-call score of the fitted dose curve at least 0.9, where 1 is the maximum; inactive = score below 0.9.
# How the values were obtained:
# [1] = ATG_E_Box_CIS: Attagene CIS-FACTORIAL HepG2 Assay for human Enhancer Box (E-box) (AID 2282936); settings: HepG2 E-box cis-reporter transcription, actives raise or lower the signal
# In short: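 Cells: HepG2 (human liver), transient MRTU transfection. Exposure 24 h. RNA → oligo(dT) RT → PCR → 6-FAM label → HpaI → CE. Activity fitted both directions relative to DMSO.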
# [2] = ATG_M_61_CIS: Attagene CIS-FACTORIAL HepG2 Assay for M61 Transcription Factor (Internal Marker) (AID 2282937); settings: HepG2 Attagene CIS-FACTORIAL M61 internal marker reporter; actives raise or lower the signal
# In short: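 This endpoint serves as an internal background control within a multiplexed HepG2 cis-reporter panel. Cells are exposed for 24 h; reporter mRNA is amplified, fluorescently labelled and sized by capillary electrophoresis, with DMSO as negative control.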
# [3] = ATG_EGR_CIS: Attagene CIS-FACTORIAL HepG2 Assay for human Early Growth Response 1 (EGR1) (AID 2282938); settings: HepG2 Attagene CIS-FACTORIAL EGR reporter mRNA; actives raise or lower the signal
# In short: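 HepG2, transient MRTU transfection (cis promoters), 24 h compound. RNA → RT (oligo-dT) → PCR → 6-FAM labelling → HpaI cut → CE fluorescence. Bidirectional fit, DMSO baseline.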
# [4] = ATG_M_19_CIS: Attagene CIS-FACTORIAL HepG2 Assay for M19 Transcription Factor (Internal Marker) (AID 2282939); settings: HepG2 Attagene CIS-FACTORIAL M19 internal marker reporter; actives raise or lower the signal
# In short: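 Transfect HepG2 with MRTU reporter library → dose chemical, 24 h → isolate total RNA, reverse-transcribe with oligo(dT) → PCR, 6-FAM label, HpaI cut (2 h, 37 C) → capillary electrophoresis. Bidirectional fit vs DMSO.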
# [5] = ATG_ERE_CIS: Attagene CIS-FACTORIAL HepG2 Assay for Estrogen Response Element (ERE) (AID 2282940); settings: HepG2 ERE cis-reporter, Attagene RNA transcript; actives raise or lower the signal
# In short: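 Transient MRTU transfection of human HepG2; cis-element promoters; 24 h dosing; total RNA → RT (oligo dT) → PCR → 6-FAM primer extension → HpaI digest → CE fluorescence. Bidirectional fit, DMSO baseline.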
# [6] = ATG_Ets_CIS: Attagene CIS-FACTORIAL HepG2 Assay for human Erythroblast Transformation Specific (ETS) (AID 2282941); settings: HepG2 ETS cis-reporter transcription, actives raise or lower the signal
# In short: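 After transient cis-reporter transfection, HepG2 cells receive test chemical for 24 h. Reporter mRNA levels, measured by RT-PCR and capillary electrophoresis fluorescence, are analysed bidirectionally relative to the DMSO baseline.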
# [7] = ATG_FoxO_CIS: Attagene CIS-FACTORIAL HepG2 Assay for human Forkhead box O (FoxO) (AID 2282943); settings: HepG2 Attagene cis-reporter, FoxO element, mRNA; actives raise or lower the signal
# In short: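 Endogenous transcription factor activity read from multiplexed cis-promoter reporter transcripts in transiently transfected HepG2, 24 h after dosing. Reporter RNA measured via RT-PCR plus capillary electrophoresis of FAM-labeled products; gain or loss relative to DMSO.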
# [8] = ATG_GLI_CIS: Attagene CIS-FACTORIAL HepG2 Assay for human Zinc Finger Protein GLI1 (AID 2282945); settings: HepG2, Attagene cis-factorial reporter mRNA, GLI element; actives raise or lower the signal
# In short: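 Bidirectional curve fits relative to DMSO, using reporter mRNA levels from RT-PCR plus capillary electrophoresis. Cells were HepG2 transiently carrying cis-regulated reporter constructs, harvested 24 h after dosing.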
# [9] = ATG_GRE_CIS: Attagene CIS-FACTORIAL HepG2 Assay for human Glucocorticoid Response Elements (GRE) (AID 2282947); settings: HepG2 GRE cis-reporter, Attagene multiplex mRNA; actives raise or lower the signal
# In short: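 Transient MRTU transfection of human HepG2 liver cells; cis-regulated reporters report endogenous factors. 24 h dosing → RNA isolation → RT-PCR → 6-FAM primer extension → HpaI cut → CE fragment analysis. Bidirectional fit, DMSO negative control.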
# [10] = ATG_ISRE_CIS: Attagene CIS-FACTORIAL HepG2 Assay for human Interferon Regulatory Factor 1 (IRF1) binding to an Interferon-Stimulated Response Element (ISRE) (AID 2282948); settings: HepG2 ISRE cis-reporter (Attagene), mRNA transcription readout; actives raise or lower the signal
# In short: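 Quantitation relies on labelled RT-PCR fragments separated by capillary electrophoresis. Human HepG2 cells bearing cis-promoter reporter constructs were treated 24 h; DMSO served as baseline for bidirectional fitting.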
# [11] = ATG_M_32_CIS: Attagene CIS-FACTORIAL HepG2 Assay for M32 Transcription Factor (Internal Marker) (AID 2282949); settings: HepG2 Attagene cis-factorial M32 reporter, mRNA; actives raise or lower the signal;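 also: background control marker of the multiplexed CIS panel rather than a real target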
# In short: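 Fluorescent capillary electrophoresis peaks of HpaI-digested, FAM-labelled RT-PCR reporter products give the signal. Source: transiently transfected human liver HepG2 cells, 24 h after chemical dosing; bidirectional fitting against DMSO.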
# [12] = molecular target: Hypoxia-inducible factor 1-alpha (Homo sapiens) (UniProt Q16665); assay: ATG_HIF1a_CIS: Attagene CIS-FACTORIAL HepG2 Assay for human Hypoxia Inducible Factor 1 (HIF1A) (AID 2282951); settings: HepG2 Attagene cis-factorial HIF1a reporter transcription; actives raise or lower the signal
# In short: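 HepG2, transient cis-reporter library, 24 h dosing. RNA → RT (oligo dT) → PCR → 6-FAM primer extension → HpaI → CE. Bidirectional curve fit vs DMSO.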
# [13] = molecular target: Hepatocyte nuclear factor 6 (Homo sapiens) (UniProt Q9UBC0); assay: ATG_HNF6_CIS: Attagene CIS-FACTORIAL HepG2 Assay for human Hepatocyte Nuclear Factor 6 (HNF6) (AID 2282952); settings: HepG2 Attagene cis-factorial HNF6 reporter transcription; actives raise or lower the signal
# In short: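 HepG2, transient MRTU transfection (cis promoters); 24 h chemical exposure; total RNA → oligo(dT) RT → PCR → 6-FAM labelling → HpaI cut → CE; bidirectional fit vs DMSO.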
# [14] = molecular target: Heat shock factor protein 1 (Homo sapiens) (UniProt Q00613); assay: ATG_HSE_CIS: Attagene CIS-FACTORIAL HepG2 Assay for human Heat Shock Transcription Factor 1 (HSE) (AID 2282953); settings: HepG2 HSE cis-reporter, Attagene RNA transcription; actives raise or lower the signal
# In short: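 HepG2, transient MRTU transfection, cis-promoter reporters (endogenous TF activity). 24 h compound. RNA → oligo(dT) RT → PCR → 6-FAM primer extension → HpaI cut → CE. Bidirectional fit vs DMSO.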
# [15] = ATG_MRE_CIS: Attagene CIS-FACTORIAL HepG2 Assay for human Metal Responsive Element (MRE) (AID 2282954); settings: HepG2 MRE cis-reporter transcription, Attagene multiplex; actives raise or lower the signal
# In short: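 Transient MRTU transfection of HepG2 (FuGene 6); 24 h dosing; total RNA → oligo(dT) RT, PCR, 6-FAM primer extension, HpaI cut, CE. Bidirectional fit vs DMSO.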
# [16] = ATG_PBREM_CIS: Attagene CIS-FACTORIAL HepG2 Assay for human Phenobarbital-responsive Enhancer Module (PBREM) (AID 2282955); settings: HepG2 PBREM cis-reporter, Attagene multiplexed transcription; actives raise or lower the signal
# In short: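 HepG2, transient MRTU transfection, 24 h dosing; RNA → oligo(dT) RT → PCR → 6-FAM extension → HpaI → CE. Bidirectional fit vs DMSO.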
# [17] = ATG_PXRE_CIS: Attagene CIS-FACTORIAL HepG2 Assay for human Pregnane X Receptor Element (PXRE) (AID 2282957); settings: HepG2 Attagene CIS-FACTORIAL PXRE reporter, mRNA; actives raise or lower the signal
# In short: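 Transfect HepG2 with MRTUs (cis promoter elements); dose chemical, incubate 24 h; isolate RNA, RT with oligo(dT), PCR, 6-FAM label, HpaI cut, CE. Gain/loss fit vs DMSO.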
# [18] = ATG_PPRE_CIS: Attagene CIS-FACTORIAL HepG2 Assay for human Peroxisome Proliferator-activated Response Element (PPRE) (AID 2282958); settings: HepG2 PPRE cis-element reporter, Attagene transcription factor profiling; actives raise or lower the signal
# In short: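 Transcript-level reporter induction in transfected HepG2 cells after 24 h chemical exposure, quantified by fluorescence from RT-PCR products separated by capillary electrophoresis.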
# [19] = molecular target: Transcription factor Sp1 (Homo sapiens) (UniProt P08047); assay: ATG_Sp1_CIS: Attagene CIS-FACTORIAL HepG2 Assay for human Specificity Protein 1 (Sp1) (AID 2282961); settings: HepG2 Sp1 cis-reporter transcription, actives raise or lower the signal
# In short: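 Measures mRNA induction of an Sp1-linked reporter in HepG2 cells 24 h post-dosing. Multiplexed reporters read by RT-PCR and capillary electrophoresis; DMSO serves as negative control and baseline.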
# [20] = molecular target: Bile acid receptor (Homo sapiens) (UniProt Q96RI1); assay: ATG_IR1_CIS: Attagene CIS-FACTORIAL HepG2 Assay for human Nuclear Receptor Subfamily 1 Group H Member 4 (NR1H4), IR1 submotif (AID 2282946); settings: IR1 reporter transcription, actives raise or lower the signal
# In short: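 Cells (human HepG2) carry transiently transfected cis-promoter reporter transcription units. Compounds are incubated 24 h, total RNA is reverse-transcribed and amplified, and labelled fragments are resolved by capillary electrophoresis. Curves use DMSO as baseline.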
smiles,measurement,setting,value
COP(C)(=O)OC,outcome,[1],inactive
same,outcome,[2],inactive
same,outcome,[3],inactive
same,outcome,[4],inactive
same,outcome,[5],inactive
same,outcome,[6],inactive
same,outcome,[7],inactive
same,outcome,[8],inactive
same,outcome,[9],inactive
same,outcome,[10],inactive
same,outcome,[11],inactive
same,outcome,[12],inactive
same,outcome,[13],inactive
same,outcome,[14],inactive
same,outcome,[15],inactive
same,outcome,[16],inactive
same,AC50,[17],active: 61.7 µM
same,outcome,[18],inactive
same,outcome,[19],inactive
COc1ccc([N+](=O)[O-])cc1[N+](=O)[O-],outcome,[1],inactive
same,outcome,[2],inactive
same,outcome,[3],inactive
same,outcome,[4],inactive
same,outcome,[5],inactive
same,outcome,[6],inactive
same,outcome,[7],inactive
same,outcome,[8],inactive
same,outcome,[9],inactive
same,outcome,[10],inactive
same,outcome,[11],inactive
same,outcome,[12],inactive
same,outcome,[13],inactive
same,outcome,[14],inactive
same,outcome,[15],inactive
same,outcome,[16],inactive
same,AC50,[17],active: 158 µM
same,outcome,[18],inactive
same,outcome,[19],inactive
N#CBr,outcome,[1],inactive
same,outcome,[2],inactive
same,outcome,[3],inactive
same,outcome,[4],inactive
same,outcome,[5],inactive
same,outcome,[6],inactive
same,outcome,[7],inactive
same,outcome,[8],inactive
same,outcome,[20],inactive
same,outcome,[9],inactive
same,outcome,[10],inactive
same,outcome,[11],inactive
same,outcome,[12],inactive
same,outcome,[13],inactive
same,outcome,[14],inactive
same,outcome,[15],inactive
same,outcome,[16],inactive
same,outcome,[17],inactive
same,outcome,[18],inactive
same,outcome,[19],inactive
Cc1ccc([N+](=O)[O-])c([N+](=O)[O-])c1,AC50,[1],active: 52.2 µM
same,outcome,[2],inactive
same,outcome,[3],inactive
same,outcome,[4],inactive
same,outcome,[5],inactive
same,outcome,[6],inactive
same,outcome,[7],inactive
same,outcome,[8],inactive
same,outcome,[9],inactive
same,outcome,[10],inactive
same,outcome,[11],inactive
same,outcome,[12],inactive
same,outcome,[13],inactive
same,outcome,[14],inactive
same,outcome,[15],inactive
same,outcome,[16],inactive
same,outcome,[17],inactive
same,outcome,[18],inactive
same,outcome,[19],inactive
Cc1cccc([N+](=O)[O-])c1[N+](=O)[O-],AC50,[1],active: 105 µM
same,outcome,[2],inactive
same,outcome,[4],inactive
same,AC50,[5],active: 19.5 µM
same,outcome,[6],inactive
same,outcome,[7],inactive
same,outcome,[8],inactive
same,outcome,[9],inactive
same,outcome,[10],inactive
same,outcome,[11],inactive
same,outcome,[12],inactive
same,outcome,[13],inactive
same,AC50,[14],active: 107 µM
same,outcome,[16],inactive
same,outcome,[17],inactive
same,AC50,[18],active: 3.16 µM
same,outcome,[19],inactive
O=[N+]([O-])c1cccc([N+](=O)[O-])c1,outcome,[1],inactive
same,outcome,[2],inactive
same,outcome,[3],inactive
same,outcome,[4],inactive
same,outcome,[5],inactive
same,outcome,[6],inactive
same,outcome,[7],inactive
same,outcome,[8],inactive
same,outcome,[20],inactive
same,outcome,[9],inactive
same,outcome,[10],inactive
same,outcome,[11],inactive
same,outcome,[12],inactive
same,outcome,[13],inactive
same,outcome,[14],inactive
same,outcome,[15],inactive
same,outcome,[16],inactive
same,outcome,[17],inactive
same,outcome,[18],inactive
same,outcome,[19],inactive
